The values below are quoted from earlier work in patent US20040176357A1, “2 Methyl-thieno-benzodiazepine lyophilized formulation” (priority 2001, published 2004).

This data set concerns serotonin 5-HT2A/2B/2C, 5-HT3, 5-HT6, dopamine D1/D2/D3/D4/D5, muscarininic cholinergic (m1-m5), alphal-adrenergic, and histamine H1 receptors. The conditions noted are these: all listed receptors; cited from earlier work.

The structures appear in SMILES notation.

As for `Cc1cc2c(s1)Nc1ccccc1N=C2N1CCN(C)CC1` [olanzapine, 2-methyl-4-(4-methyl-1-piperazinyl)-10H-thieno[2,3-b][1,5]benzodiazepine], the “receptor affinity in vitro” value was “nanomolar receptor affinity”.
